Bioassay records: PubChem BioAssay, Broad Institute
An excerpt weighted towards active compounds, which were near 1.7% of everything screened.
Dyrk1A ADPGlo – rat Dyrk1A kinase inhibitors, primary screen, biochemical, single point, plate reader | Dual specificity tyrosine-phosphorylation-regulated kinase 1A (Rattus norvegicus), Q63470 | inhibition, % at 12.5 µM | hit rate 0.43% among 310,000 | AID 504441, 2011 | ADP-Glo luminescence, NFATc1 peptide; in the data active means inhibition above about 50%;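 further: plate controls were vehicle with enzyme for no effect and no enzyme for full effect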
Yeast UUG start – alters start codon recognition fidelity in yeast. S. cerevisiae UUG-firefly luciferase reporter, luminescence/redox ratio. AID 602363. activity score, % at 18.7 µM. hit rate 0.13% among 350,000;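 active = replicate mean at a twofold rise or more, about +100% in these data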;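 note: firefly luciferase made from a UUG start codon reports start codon fidelity; reporter light over untreated wells divided by growth signal over untreated wells; some hits fall short of that in this replicate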
CAL PDZ FP-1 – untagged CAL PDZ binding inhibitors, primary screen, biochemical, fluorescence polarization, HTS; inhibition, % at 24.9 µM; hit rate 0.92% among 300,000; purified CAL PDZ, TMR-peptide fluorescence polarization, 1 h;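 active means mean inhibition of at least 30% with at least half of replicates also reaching 30%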;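 further: 0% = DMSO neutral control and 100% = excess unlabeled competitor peptide PRC23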
CDK5 inh – inhibitors of human CDK5/p35 kinase, primary screen, biochemical, single concentration; hit rate 0.01% among 330,000; inhibition, % at 10 µM; AID 488839, 2010; Cyclin-dependent kinase 5 (Homo sapiens) + Cyclin-dependent kinase 5 activator 1 (Homo …; Recombinant CDK5/p35, ADP-Glo luminescence, 60 min;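 active means highest replicate inhibition of at least 50% and at least 75% of replicates reaching 50%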;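 further: plate controls were DMSO neutral control for no effect and GW8510 at 10 µM for full effect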
CAL PDZ FP-2 – CAL PDZ peptide-binding inhibitors, primary screen, biochemical, fluorescence polarization, Cer-tagged CAL PDZ, HTS; Golgi-associated PDZ and coiled-coil motif-containing protein (Homo sapiens), Q9HD26; purified CAL PDZ, TMR-peptide fluorescence polarization, 1 h; inhibition, % at 20 µM; hit rate 0.02% among 330,000; AID 504414, 2011;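 active means highest replicate inhibition of at least 40%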;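 further: plate controls were DMSO neutral control wells for no effect and unlabeled competitor peptide control wells for full effect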
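Control set: unlabelled peptide and DMSO controls / Material: purified CerCALP PDZ construct / Timing: 1 h incubation at room temperature before polarization reading / Doses: 20 µM, one dose / Detection: fluorescence polarization (mP)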
dFosB act-1 – activators of delta FosB homodimer, primary screen, biochemical, fluorescence polarization, TAMRA-CDK5 oligo, single point | hit rate 0.99% among 340,000 | purified delta FosB; percent of positive-control signal above neutral wells | activation, % at 25 µM | Protein FosB (Mus musculus), P13346;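 active means mean activation above about 17%, with every replicate also reaching it, limit read from the data, passing the limit was not always enough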
dFosB act-2 – activators of mouse delta FosB DNA binding, confirmation, biochemical, fluorescence polarization, TAMRA-CDK5 oligo, cherry-picked samples | shares compounds with dFosB act-1 | purified delta FosB; normalised: neutral wells 0, positive control 100 | activation, % at 24.9 µM | 2,400 tested, under 10 active | AID 588690, 2011;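 active means highest replicate activation at or above 34% and every replicate reaching that threshold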;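 further: higher polarization means more probe DNA bound by delta FosB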
Starred values were filed as active, the others as inactive; nt = not tested or not shown.

SMILES | Dyrk1A ADPGlo | Yeast UUG start | CAL PDZ FP-1 | CDK5 inh | CAL PDZ FP-2 | dFosB act-1 | dFosB act-2
CCNC(=O)C[C@@H]1CC[C@H]2[C@@H](COC[C@@H](O)CN2C(=O)Nc2c(C)noc2C)O1 | nt | -17 | nt | nt | nt | nt | nt
O=C(C[C@@H]1C=C[C@H](NS(=O)(=O)c2ccccc2)[C@@H](CO)O1)NCc1ccncn1 | nt | -14 | nt | nt | nt | nt | nt
Cc1cc(Nc2ccc3c(c2)OCCO3)c2ccccc2n1 | -1 | nt | 0 | -1 | -1 | 7 | nt
Cc1cc(Nc2ccc3c(c2)OCCO3)c2cccc(C)c2n1 | 3 | -13 | -2 | 2 | -3 | 31* | 6
CCOc1ccc2nc(C)cc(Nc3ccc4c(c3)OCCO4)c2c1 | 13 | -17 | nt | -1 | -1 | 44* | 4
CO[C@@H]1CN(C)C(=O)c2ccc(NC(=O)Cc3ccccc3)cc2OC[C@@H](C)NC[C@@H]1C | nt | -7 | nt | nt | nt | nt | nt
O=C(Nc1cccc(Cl)c1)N1C[C@H]2[C@@H](c3ccccc31)[C@H](CO)N2Cc1ccccc1Cl | nt | 1 | nt | nt | nt | nt | nt
COc1cc(C(=O)NCc2ccc(-c3nc4ccccc4s3)cc2)cc(OC)c1OC | -8 | nt | -4 | -2 | -1 | -10 | nt
COc1cc(C(=O)NCc2ccc(-c3nc4ccccc4o3)cc2)cc(OC)c1OC | 2 | -10 | -3 | -2 | -1 | 27* | 5
CN1C(=O)c2cc(NS(=O)(=O)c3ccc(F)cc3)ccc2OC[C@H]2O[C@H](CC(=O)O)CC[C@H]21 | nt | -7 | nt | nt | nt | nt | nt

Some entries already given with just CAL PDZ FP-1, CAL PDZ FP-2 and Yeast UUG start.
SMILES	CAL PDZ FP-1	CAL PDZ FP-2	Yeast UUG start
Cc1cc(Nc2ccc3c(c2)OCCO3)c2cccc(C)c2n1	-2	-3	-13
CCNC(=O)C[C@@H]1CC[C@H]2[C@@H](COC[C@@H](O)CN2C(=O)Nc2c(C)noc2C)O1	nt	nt	-17

Three entries out of the list above, arranged by the value under Dyrk1A ADPGlo, falling.
structure | Dyrk1A ADPGlo
Cc1cc(Nc2ccc3c(c2)OCCO3)c2cccc(C)c2n1 | 3
COc1cc(C(=O)NCc2ccc(-c3nc4ccccc4o3)cc2)cc(OC)c1OC | 2
Cc1cc(Nc2ccc3c(c2)OCCO3)c2ccccc2n1 | -1

New compounds follow:
SMILES | Dyrk1A ADPGlo | Yeast UUG start | CAL PDZ FP-1 | CDK5 inh | CAL PDZ FP-2 | dFosB act-1 | dFosB act-2
Cc1nn(Cc2ccccc2)c(Cl)c1/C=C/C(=O)OC(C(=O)NC(N)=O)C(C)C (configuration not stated) | 1 | -20 | 0 | -2 | -3 | 50* | -1
Cc1nn(Cc2ccccc2Cl)c(Cl)c1/C=C/C(=O)OCC(=O)NC(N)=O | -1 | -7 | 1 | -2 | 0 | 2 | nt
CCOC(=O)c1ccc(NC(=O)C(=O)NCc2ccc(/C=C(/C#N)C(=O)NCCOC)o2)cc1 | nt | nt | 6 | 0 | -3 | 23* | -2
C/C(=N\NC(=O)CSc1nc2ccccc2o1)c1cccc(O)c1 | 1 | -7 | 7 | 0 | 0 | 25* | 4
C/C(=N\NC(=O)CSc1nc2ccccc2o1)c1ccc(O)cc1 | 7 | -19 | 2 | -1 | -1 | -4 | nt
CC(=O)Nc1sc(C)c(C)c1C(=O)OCC(=O)NCc1ccc(Cl)cc1 | 2 | -8 | nt | -2 | -1 | 90* | 3
COc1ccc(/C=N\NC(=O)c2cc(OCC(F)(F)F)ccc2OCC(F)(F)F)cc1 | 5 | nt | -11 | 0 | nt | 18* | -1
NC(=O)Cn1cc(/C=N/NC(=O)c2ccc(Cn3cc(Cl)cn3)o2)c(-c2ccccc2)n1 | 5 | 0 | -4 | 1 | -2 | 36* | 6
O=C(COC(=O)c1n[nH]c(=O)c2ccccc12)NCc1ccccc1 | -3 | -16 | 2 | -1 | 0 | 9 | nt
O=C(COC(=O)c1n[nH]c(=O)c2ccccc12)NC1CCCCC1 | nt | -9 | -2 | -1 | 0 | 50* | 1
O=C(O)CCCc1ccc2ccc3cccc4ccc1c2c34 | 19 | -17 | -1 | -2 | nt | -7 | nt
NCCCCc1ccc2ccc3cccc4ccc1c2c34 | 11 | -18 | -3 | 1 | -1 | 32* | 1
COc1ccccc1C1CCN(Cc2ccc3ccccc3c2)CC1 | 2 | -12 | 0 | 0 | -2 | 21* | 2
C[C@@H]1CN([C@@H](C)CO)S(=O)(=O)c2ccc(-c3cccc(C#N)c3)cc2O[C@H]1CN(C)Cc1cccc(F)c1 | nt | 22 | nt | nt | nt | nt | nt
O=C(OCC(O)C(O)C(O)C(SCc1ccccc1)SCc1ccccc1)c1ccccc1 (configuration not stated) | 3 | -12 | -5 | -3 | -1 | 23* | 5
CN(C)C(=O)[C@H]1[C@H](CO)[C@H]2Cn3c(ccc(C4=CCCCC4)c3=O)[C@@H]1N2Cc1cccnc1 | nt | -9 | nt | nt | nt | nt | nt
CCOCCn1c(=NC(=O)/C=C/c2ccccc2Cl)sc2cc(NC(C)=O)ccc21 | 1 | nt | 1 | 0 | -1 | -7 | nt
COCCn1c(=NC(=O)/C=C/c2ccccc2Cl)sc2cc(NC(C)=O)ccc21 | 6 | nt | -2 | 1 | -3 | 27* | -2
COc1cccc(NC(=O)Cn2nnc(C(=O)Nc3cc(Cl)ccc3OC)c2N)c1 | -5 | -14 | -2 | 1 | -2 | 38* | 4
COc1ccc(NC(=O)Cn2nnc(C(=O)Nc3ccc(F)c(Cl)c3)c2N)cc1 | -1 | -21 | 1 | -7 | -2 | 32* | 4

Individual results from the results shown:
CAL PDZ FP-1, O=C(OCC(O)C(O)C(O)C(SCc1ccccc1)SCc1ccccc1)c1ccccc1 (configuration not stated) reads -5
Dyrk1A ADPGlo, Cc1cc(Nc2ccc3c(c2)OCCO3)c2ccccc2n1 reads -1
dFosB act-2, CC(=O)Nc1sc(C)c(C)c1C(=O)OCC(=O)NCc1ccc(Cl)cc1 reads 3

(continued)
SMILES | Dyrk1A ADPGlo | Yeast UUG start | CAL PDZ FP-1 | CDK5 inh | CAL PDZ FP-2 | dFosB act-1 | dFosB act-2
COc1ccc(Cl)cc1NC(=O)c1nnn(CC(=O)Nc2ccc(OC)c(OC)c2)c1N | -3 | -16 | 7 | 2 | -1 | 94* | 2
COc1ccc(Cl)cc1NC(=O)c1nnn(CC(=O)Nc2cc(C)cc(C)c2)c1N | -3 | -15 | -3 | 0 | 0 | 103* | 1
C[C@H](CO)N1C[C@H](C)[C@H](CN(C)CC2CCOCC2)Oc2cc(C#CC3CC3)ccc2S1(=O)=O | nt | 7 | nt | nt | nt | nt | nt
O=C(Nc1ccc2c(c1)OCO2)N[C@H]1CC[C@H](CC(=O)N2CCN(c3ccccc3)CC2)O[C@H]1CO | nt | 8 | nt | nt | nt | nt | nt
COc1ccc(Cl)cc1NC(=O)c1nnn(CC(=O)Nc2ccc3c(c2)OCO3)c1N | 2 | -9 | -1 | 1 | -2 | 21* | -2
C(=N\Nc1nc(Nc2ccccc2)nc(Nc2ccccc2)n1)/c1cccnc1 | -2 | nt | -4 | -3 | -4 | 65* | 0
CNC(=O)c1ccc(-c2ccc(F)cc2)s1 | 21 | -13 | 0 | 0 | -1 | -3 | nt
CNC(=O)c1ccc(-c2ccc(Cl)c(Cl)c2)s1 | 3 | nt | -2 | -1 | -3 | 21* | 2
Cc1noc(C)c1S(=O)(=O)Nc1ccc2c(c1)CC(=O)N([C@H](C)CO)C[C@@H](C)[C@H](CN(C)Cc1ccc3c(c1)OCO3)O2 | nt | -10 | nt | nt | nt | nt | nt
CC(=O)Nc1ccc(-n2nnnc2SCC(=O)Nc2cccc(NC(=O)c3ccco3)c2)cc1 | -4 | 3 | -5 | 0 | -3 | 33* | 8
COc1cc(OC)cc(-n2nnnc2SCC(=O)Nc2ccc(C(C)=O)cc2)c1 | 2 | 6 | -3 | -1 | -1 | 37* | -7
